# Literature values in patent US20100120787A1, “MODIFICATION OF AMYLOID-BETA LOAD IN NON-BRAIN TISSUE” (MODGENE, LLC, priority 2008, published 2010).
smiles,measurement,setting,value
Cc1ccc(NC(=O)c2ccc(CN3CCN(C)CC3)cc2)cc1Nc1nccc(-c2cccnc2)n1 [STI-571],absorption after oral administration,"human, in vivo, po",well absorbed
same,change in pharmacokinetics on repeated dosing,repeated dosing,no significant change
